Experimental data taken from publication PMC5912162 (Bioconjugate chemistry, 2010).

Tests used:
[1] = test system: human AsPC1 (G12D) pancreatic cancer xenografts; conditions: mouse, in vivo
[2] = test system: human CAPAN2 (G12 V) pancreatic cancer xenografts; conditions: mouse, in vivo

| SMILES | K/T (kidney/tumor ratio, tissue distribution) [1] | Kidney/tumor (K/T) ratio of 111In uptake, with elevated Gd probe dose [2] | T/M (tumor/muscle ratio, tissue distribution) [1] |
| --- | --- | --- | --- |
| Cc1cn(CC(=O)N(CCNC(=O)CN(CCNC(=O)CN(CCNC(=O)CN(CCNC(=O)CN(CCNC(=O)CN(CCNC(=O)CN(CCNC(=O)CN(CCNC(=O)CN(CCNC(=O)CN(CCNC(=O)COCCOCCNC(=O)COCCOCCNC(=O)[C@H](CNC(=O)COCCOCCNC(=O)CN2CCN(CC(=O)O)CCN(CC(=O)O)CCN(CC(=O)O)CC2)NC(=O)COCCOCCNC(=O)CN2CCN(CC(=O)O)CCN(CC(=O)O)CCN(CC(=O)O)CC2)C(=O)Cn2cnc3c(=O)[nH]c(N)nc32)C(=O)Cn2ccc(N)nc2=O)C(=O)Cn2ccc(N)nc2=O)C(=O)Cn2cnc3c(N)ncnc32)C(=O)Cn2cc(C)c(=O)[nH]c2=O)C(=O)Cn2ccc(N)nc2=O)C(=O)Cn2cnc3c(N)ncnc32)C(=O)Cn2cnc3c(=O)[nH]c(N)nc32)C(=O)Cn2ccc(N)nc2=O)CC(=O)NCCN(CC(=O)NCCN(CC(=O)NCCOCCOCC(=O)N[C@@H]2CSSC[C@H](C(N)=O)NC(=O)[C@@H](CCCCN)NC(=O)[C@@H](CO)NC2=O)C(=O)Cn2ccc(N)nc2=O)C(=O)Cn2ccc(N)nc2=O)c(=O)[nH]c1=O [WT5195, (DOTA-AEEA)2-PDAP^1-AEEA2-GCCAtCAGCTCC-AEEA-D(Cys-Ser-Lys-Cys)] | 142.67 ± 41.47 | – | – |
| Cc1cn(CC(=O)N(CCNC(=O)CN(CCNC(=O)CN(CCNC(=O)CN(CCNC(=O)CN(CCNC(=O)CN(CCNC(=O)CN(CCNC(=O)CN(CCNC(=O)CN(CCNC(=O)CN(CCNC(=O)COCCOCCNC(=O)COCCOCCNC(=O)[C@H](CNC(=O)COCCOCCNC(=O)CN2CCN(CC(=O)O)CCN(CC(=O)O)CCN(CC(=O)O)CC2)NC(=O)COCCOCCNC(=O)CN2CCN(CC(=O)O)CCN(CC(=O)O)CCN(CC(=O)O)CC2)C(=O)Cn2cnc3c(=O)[nH]c(N)nc32)C(=O)Cn2ccc(N)nc2=O)C(=O)Cn2ccc(N)nc2=O)C(=O)Cn2cnc3c(N)ncnc32)C(=O)Cn2cnc3c(N)ncnc32)C(=O)Cn2ccc(N)nc2=O)C(=O)Cn2cnc3c(N)ncnc32)C(=O)Cn2cnc3c(=O)[nH]c(N)nc32)C(=O)Cn2ccc(N)nc2=O)CC(=O)NCCN(CC(=O)NCCN(CC(=O)NCCOCCOCC(=O)N[C@@H]2CSSC[C@H](C(N)=O)NC(=O)[C@@H](CCCCN)NC(=O)[C@@H](CO)NC2=O)C(=O)Cn2ccc(N)nc2=O)C(=O)Cn2ccc(N)nc2=O)c(=O)[nH]c1=O [WT5204, (DOTA-AEEA)2-PDAP^1-AEEA2-GCCAaCAGCTCC-AEEA-D(Cys-Ser-Lys-Cys)] | 132.2 ± 26.1 | – | – |
| Cc1cn(CC(=O)N(CCNC(=O)CN(CCNC(=O)CN(CCNC(=O)CN(CCNC(=O)CN(CCNC(=O)CN(CCNC(=O)CN(CCNC(=O)CN(CCNC(=O)CN(CCNC(=O)CN(CCNC(=O)COCCOCCNC(=O)COCCOCCNC(=O)[C@H](CNC(=O)[C@H](CNC(=O)[C@H](CNC(=O)COCCOCCNC(=O)CN2CCN(CC(=O)O)CCN(CC(=O)O)CCN(CC(=O)O)CC2)NC(=O)COCCOCCNC(=O)CN2CCN(CC(=O)O)CCN(CC(=O)O)CCN(CC(=O)O)CC2)NC(=O)[C@H](CNC(=O)COCCOCCNC(=O)CN2CCN(CC(=O)O)CCN(CC(=O)O)CCN(CC(=O)O)CC2)NC(=O)COCCOCCNC(=O)CN2CCN(CC(=O)O)CCN(CC(=O)O)CCN(CC(=O)O)CC2)NC(=O)[C@H](CNC(=O)[C@H](CNC(=O)COCCOCCNC(=O)CN2CCN(CC(=O)O)CCN(CC(=O)O)CCN(CC(=O)O)CC2)NC(=O)COCCOCCNC(=O)CN2CCN(CC(=O)O)CCN(CC(=O)O)CCN(CC(=O)O)CC2)NC(=O)[C@H](CNC(=O)COCCOCCNC(=O)CN2CCN(CC(=O)O)CCN(CC(=O)O)CCN(CC(=O)O)CC2)NC(=O)COCCOCCNC(=O)CN2CCN(CC(=O)O)CCN(CC(=O)O)CCN(CC(=O)O)CC2)C(=O)Cn2cnc3c(=O)[nH]c(N)nc32)C(=O)Cn2ccc(N)nc2=O)C(=O)Cn2ccc(N)nc2=O)C(=O)Cn2cnc3c(N)ncnc32)C(=O)Cn2cc(C)c(=O)[nH]c2=O)C(=O)Cn2ccc(N)nc2=O)C(=O)Cn2cnc3c(N)ncnc32)C(=O)Cn2cnc3c(=O)[nH]c(N)nc32)C(=O)Cn2ccc(N)nc2=O)CC(=O)NCCN(CC(=O)NCCN(CC(=O)NCCOCCOCC(=O)N[C@@H]2CSSC[C@H](C(N)=O)NC(=O)[C@@H](CCCCN)NC(=O)[C@@H](CO)NC2=O)C(=O)Cn2ccc(N)nc2=O)C(=O)Cn2ccc(N)nc2=O)c(=O)[nH]c1=O [WT8900, (DOTA-AEEA)8-PDAP^3-AEEA2-GCCAtCAGCTCC-AEEA-D(Cys-Ser-Lys-Cys)] | 210.8 ± 79.68 | – | – |
| Cc1cn(CC(=O)N(CCNC(=O)CN(CCNC(=O)CN(CCNC(=O)CN(CCNC(=O)CN(CCNC(=O)CN(CCNC(=O)CN(CCNC(=O)CN(CCNC(=O)CN(CCNC(=O)CN(CCNC(=O)COCCOCCNC(=O)COCCOCCNC(=O)[C@H](CNC(=O)[C@H](CNC(=O)[C@H](CNC(=O)COCCOCCNC(=O)CN2CCN(CC(=O)O)CCN(CC(=O)O)CCN(CC(=O)O)CC2)NC(=O)COCCOCCNC(=O)CN2CCN(CC(=O)O)CCN(CC(=O)O)CCN(CC(=O)O)CC2)NC(=O)[C@H](CNC(=O)COCCOCCNC(=O)CN2CCN(CC(=O)O)CCN(CC(=O)O)CCN(CC(=O)O)CC2)NC(=O)COCCOCCNC(=O)CN2CCN(CC(=O)O)CCN(CC(=O)O)CCN(CC(=O)O)CC2)NC(=O)[C@H](CNC(=O)[C@H](CNC(=O)COCCOCCNC(=O)CN2CCN(CC(=O)O)CCN(CC(=O)O)CCN(CC(=O)O)CC2)NC(=O)COCCOCCNC(=O)CN2CCN(CC(=O)O)CCN(CC(=O)O)CCN(CC(=O)O)CC2)NC(=O)[C@H](CNC(=O)COCCOCCNC(=O)CN2CCN(CC(=O)O)CCN(CC(=O)O)CCN(CC(=O)O)CC2)NC(=O)COCCOCCNC(=O)CN2CCN(CC(=O)O)CCN(CC(=O)O)CCN(CC(=O)O)CC2)C(=O)Cn2cnc3c(=O)[nH]c(N)nc32)C(=O)Cn2ccc(N)nc2=O)C(=O)Cn2ccc(N)nc2=O)C(=O)Cn2cnc3c(N)ncnc32)C(=O)Cn2cnc3c(N)ncnc32)C(=O)Cn2ccc(N)nc2=O)C(=O)Cn2cnc3c(N)ncnc32)C(=O)Cn2cnc3c(=O)[nH]c(N)nc32)C(=O)Cn2ccc(N)nc2=O)CC(=O)NCCN(CC(=O)NCCN(CC(=O)NCCOCCOCC(=O)N[C@@H]2CSSC[C@H](C(N)=O)NC(=O)[C@@H](CCCCN)NC(=O)[C@@H](CO)NC2=O)C(=O)Cn2ccc(N)nc2=O)C(=O)Cn2ccc(N)nc2=O)c(=O)[nH]c1=O [WT8910, (DOTA-AEEA)8-PDAP^3-AEEA2-GCCAaCAGCTCC-AEEA-D(Cys-Ser-Lys-Cys)] | 122.8 ± 35.2 | 30.8 ± 3.1 | 3.72 ± 0.007 |
